# Assay results as given in patent EP4793349A2.
# Molecular target: cation-independent mannose-6-phosphate receptor (CIMPR)
# Experiment: CIMPR affinity chromatography, M6P gradient elution, GAA activity of fractions
substance,measurement,value
Lumizyme® rhGAA (alglucosidase alfa) (from UniProt P10253 57-952) (enzyme),percent of rhGAA not bound to CIMPR,78%
Myozyme® rhGAA (alglucosidase alfa) (from UniProt P10253 57-952) (enzyme),percent of rhGAA not bound to CIMPR,73%
